From PubChem BioAssay AID602440 (Sanford-Burnham Center for Chemical Genomics, 2012) come the findings set out here.

Protein sequences, listed by entry. Tags and fused reporters are not part of them.
UniProt Q96LD8, whole entry: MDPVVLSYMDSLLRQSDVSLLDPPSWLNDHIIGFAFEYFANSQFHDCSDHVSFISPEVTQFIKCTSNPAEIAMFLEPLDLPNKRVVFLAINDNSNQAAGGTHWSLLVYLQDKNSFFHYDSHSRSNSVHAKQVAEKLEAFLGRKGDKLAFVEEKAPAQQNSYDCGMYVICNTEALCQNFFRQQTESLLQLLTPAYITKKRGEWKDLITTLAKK

The structures appear in SMILES notation. The entries are a selection whose mix differs from that of the whole data set. Calls of active or inactive are those of the source. Rule as the data show it: active = inhibition mostly above about 40% (no sharp cut-off); inactive = mostly below about 27%.

What is called inhibition is the change of the read-out against control, counted positive when it falls.

The target of the assay is Sentrin-specific protease 8 (Homo sapiens) (UniProt Q96LD8). Put plainly: human SENP8 protease inhibitors, primary screen, biochemical, fluorescence, Nedd8 protein substrate, uHTS (AID 602440). To be noted: recombinant SENP8, Nedd8 substrate fluorescence; at 20 µM; hits give high values.
For the compound `CCN(CC)CCCNc1ccccc1[N+](=O)[O-].O=[N+]([O-])c1cc([N+](=O)[O-])c(O)c([N+](=O)[O-])c1`, the inhibition is inactive: 26.6%.

In the case of `CCOC(=O)c1ccc(NP(C)(=O)Oc2ccc(F)cc2)cc1` (stereo unspecified), the inhibition is inactive: 12.8%.

In the case of `COc1ccc(OP(C)(=O)Nc2ccc(SC(F)(F)F)cc2)cc1` (stereo unspecified), the inhibition is inactive: 6.6%.

For the compound `Cc1c([N+](=O)[O-])cc([N+](=O)[O-])c(Br)c1[N+](=O)[O-]`, the inhibition is inactive: 29.7%.

For the compound `CCN(CC)CCCOC(=O)C(O)(c1ccccc1)C1CCCCC1` (stereo unspecified), the inhibition was inactive: 14.2%.

`CP(=O)(Nc1ccccc1)Oc1ccc(F)cc1` (stereo unspecified): the inhibition was inactive: 5.8%.

In the case of `CCCCCOc1ccc(NP(C)(=O)Oc2ccc(Cl)cc2Cl)cc1` (stereo unspecified), the inhibition was inactive: 9.7%.

For the compound `O=[N+]([O-])c1cc([N+](=O)[O-])c(OC2CCCCC2O)c([N+](=O)[O-])c1` (stereo unspecified), the inhibition is inactive: 9.3%.

Consider `O=[N+]([O-])c1cc([N+](=O)[O-])c(Nc2ccc(Cl)cc2)c([N+](=O)[O-])c1`, for which the inhibition is active: 53%.

`CP(=O)(Nc1ccccc1F)Oc1ccccc1` (stereo unspecified): the inhibition was inactive: 6.6%.

With `CC(C)c1ccc(OP(C)(=O)Nc2ccc(SC(F)(F)F)cc2)cc1` (stereo unspecified), the inhibition was inactive: 7.9%.

Regarding `O=C(OC1CN2CCC1CC2)c1ccc([N+](=O)[O-])cc1` (stereo unspecified), the inhibition was inactive: 17.9%.

Take `O=C(OCCN1CCN(CCOCc2ccccc2)CC1)C(O)(c1ccccc1)c1ccccc1`: the inhibition is inactive: 14.9%.

Consider `CP(=O)(Nc1ccc(SC(F)(F)F)cc1)Oc1ccc(F)cc1` (stereo unspecified), for which the inhibition was inactive: 12.7%.

In the case of `CCOP(C)(=S)SCC(=O)NC(C)(CC)C(=O)O` (stereo unspecified), the inhibition was inactive: 27%.

For `CP(=O)(Nc1ccc2c(c1)OCCO2)Oc1ccccc1` (stereo unspecified), the inhibition is inactive: 22.2%.

In the case of `Cc1ccccc1NP(C)(=O)Nc1ccccc1C`, the inhibition is inactive: 19.1%.

For the compound `O=[N+]([O-])c1cc([N+](=O)[O-])c(C(F)(F)F)c([N+](=O)[O-])c1O`, the inhibition was inactive: 24.5%.

For `COc1ccc(OP(C)(=O)Nc2cccc(Br)c2)cc1` (stereo unspecified), the inhibition was inactive: 13.7%.

Consider `CN(C)CCOC(=O)C(O)(c1ccccc1)C1CCCCC1` (stereo unspecified), for which the inhibition is inactive: 17.1%.

For the compound `COc1ccc(NP(C)(=O)Oc2ccccc2OC)cc1` (stereo unspecified), the inhibition is inactive: -2.6%.

`O=[N+]([O-])c1ccc(OP2(=O)COCCO2)cc1` (stereo unspecified): the inhibition is inactive: 9.1%.

On to `Cc1cc(-c2cccc3ccccc23)c(C)cn1.O=[N+]([O-])c1cc([N+](=O)[O-])c(O)c([N+](=O)[O-])c1`, for which the inhibition was inactive: 13.2%.

`O=[N+]([O-])c1cc([N+](=O)[O-])c(NCC2CCS(=O)(=O)C2)c([N+](=O)[O-])c1` (stereo unspecified): the inhibition was inactive: 33.1%.

Turning to `Cc1c(C(c2ccc3c(c2)OCO3)c2c(C)n(C)n(-c3ccccc3)c2=O)c(=O)n(-c2ccccc2)n1C.O=[N+]([O-])c1cc([N+](=O)[O-])c(O)c([N+](=O)[O-])c1`, the inhibition was inactive: 13.7%.

Take `CCOC(=O)c1ccc(NP(C)(=O)Oc2ccc(Cl)cc2)cc1` (stereo unspecified): the inhibition is inactive: 12.6%.

For the compound `CP(=O)(OC12CC3CC(CC(C3)C1)C2)OC12CC3CC(CC(C3)C1)C2`, the inhibition was inactive: -1.7%.

`CCN(CC)CC(O)COC(=O)C(O)(c1ccccc1)C1CCCCC1` (stereo unspecified): the inhibition was inactive: 1.5%.

As to `COc1ccc(OP(C)(=O)Nc2ccc(Br)cc2)cc1` (stereo unspecified), the inhibition is inactive: 15.2%.

For `COc1ccccc1OP(C)(=O)Nc1c(C)n(C)n(-c2ccccc2)c1=O` (stereo unspecified), the inhibition was inactive: 21.2%.

Regarding `O=C(OCCCN1CCCC1)C(O)(c1ccccc1)C1CCCCC1` (stereo unspecified), the inhibition was inactive: 4.9%.

Regarding `CP(=O)(Oc1ccccc1)N1CCOC1=O` (stereo unspecified), the inhibition was inactive: 12%.

`CCc1ccc(OP(C)(=O)Nc2cccnc2)cc1` (stereo unspecified): the inhibition was inactive: 7.5%.

Regarding `CC(C)(C)c1ccc(OP(C)(=O)O)cc1`, the inhibition is inactive: 8.8%.

As to `COc1ccccc1OP(C)(=O)Nc1ccccc1Br` (stereo unspecified), the inhibition was inactive: 8.8%.

For `CP(=O)(Nc1ccc(Cl)cc1)Oc1ccc(F)cc1` (stereo unspecified), the inhibition was inactive: 10.1%.

Consider `CN(C)C(=O)c1c([N+](=O)[O-])cc([N+](=O)[O-])cc1[N+](=O)[O-]`, for which the inhibition is active: 44.9%.

For the compound `COc1ccccc1OP(C)(=O)Nc1ccc(Br)cc1` (stereo unspecified), the inhibition is inactive: 23.4%.

Take `COc1ccc(OP(C)(=O)Nc2ccccn2)cc1` (stereo unspecified): the inhibition was inactive: 12.2%.

As for `CN(C)CCOC(=O)C(O)(c1ccccc1)C1CCCC1` (stereo unspecified), the inhibition is inactive: 10.2%.

As for `O=[N+]([O-])c1cc([N+](=O)[O-])c(Nc2ccccn2)c([N+](=O)[O-])c1`, the inhibition was active: 46%.

Turning to `Cc1c(NP(C)(=O)Oc2ccc(C(C)C)cc2)c(=O)n(-c2ccccc2)n1C` (stereo unspecified), the inhibition is inactive: 24.1%.

On to `CP(=O)(Nc1ccccn1)Oc1ccccc1` (stereo unspecified), for which the inhibition is inactive: 6.9%.

Regarding `COc1ccccc1OP(C)(=O)Nc1ccc(C)cc1C` (stereo unspecified), the inhibition was inactive: 33.1%.

For the compound `CCc1ccc(OP(C)(=O)O)cc1`, the inhibition was inactive: 10.1%.

In the case of `O=C1C(O)=C([N+](=O)[O-])C(=O)C(O)=C1[N+](=O)[O-]`, the inhibition was inactive: -1.4%.

`Cc1cc(C)cc(OP(C)(=O)Nc2cccc(C(F)(F)F)c2)c1` (stereo unspecified): the inhibition is inactive: 7.6%.

Regarding `COc1ccccc1OP(C)(=O)Nc1ccc(C)c(C)c1` (stereo unspecified), the inhibition is inactive: 12.2%.

`COc1ccc(OP(C)(=O)Nc2ccccc2Br)cc1` (stereo unspecified): the inhibition was inactive: -2.4%.

`CP(=O)(OCCOc1ccccc1)OCCOc1ccccc1`: the inhibition was inactive: -1.5%.

As for `CCCCCCCCCCCCCCCC1C[N+](C)(C)CCOP(C)(=O)O1` (stereo unspecified), the inhibition is inactive: 11.5%.

For the compound `CP(=O)(Nc1ccc(Cl)cc1Cl)Oc1ccccc1` (stereo unspecified), the inhibition is inactive: -6.6%.

Regarding `O=[N+]([O-])c1cc([N+](=O)[O-])c(Nc2cccnc2)c([N+](=O)[O-])c1`, the inhibition was active: 52.6%.

For `O=[N+]([O-])c1ccc2c(c1)C=Nc1ccccc1O2`, the inhibition was inactive: 15.6%.

Consider `CC(C)(C)c1ccc(OP(C)(=O)Nc2ccc(SC(F)(F)F)cc2)cc1` (stereo unspecified), for which the inhibition is inactive: 10.9%.

Turning to `Cc1cccc(C)c1OP(C)(N)=O` (stereo unspecified), the inhibition was inactive: 39.4%.

For the compound `COc1ccccc1OP(C)(=O)Nc1ccc(C)cc1` (stereo unspecified), the inhibition was inactive: 24%.

Consider `Cc1ccc(NP(C)(=O)Oc2ccccc2)c(C)c1` (stereo unspecified), for which the inhibition was inactive: 28.3%.

Turning to `CCOC(=O)c1ccc(NP(C)(=O)Oc2ccccc2)cc1` (stereo unspecified), the inhibition was inactive: 5.3%.

As to `Cc1cc(C)cc(OP(C)(N)=O)c1` (stereo unspecified), the inhibition is inactive: 16.4%.

`COc1ccccc1OP(C)(=O)Nc1cc(Cl)ccc1C` (stereo unspecified): the inhibition is inactive: 8.1%.
